# scFv variants of Ab-95 (light chain) against a SARS-CoV-2 spike peptide

Data: MIT Lincoln Laboratory AlphaSeq set, Engelhart et al. 2022, doi:10.1038/s41597-022-01779-4, as distributed in FLAb.

All variants were tested on one target, the spike HR2 peptide PDVDLGDISGINAS (SARS-CoV-2).

Ab-95 is the parent antibody, in scFv form: VH, then three GGGGS repeats, then VL. The heavy chain is unchanged in all variants.
VH: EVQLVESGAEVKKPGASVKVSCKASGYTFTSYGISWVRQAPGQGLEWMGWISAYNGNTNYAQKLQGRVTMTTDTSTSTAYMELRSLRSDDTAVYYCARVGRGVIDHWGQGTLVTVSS
VL: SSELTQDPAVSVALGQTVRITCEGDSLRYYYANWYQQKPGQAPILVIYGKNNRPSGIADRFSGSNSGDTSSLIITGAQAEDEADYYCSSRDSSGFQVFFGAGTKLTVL

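The parent was found by panning a naive human phage display library on the peptide. AAYL52 was designed without a model: most single CDR substitutions and a random sample of double and triple ones. The assay is AlphaSeq: two haploid yeast populations carry antibody and antigen on their surface. After mating in shaken culture at 30 °C for 16 h, diploids were selected and their barcode pairs sequenced. The ratio of observed to expected reads was calibrated, replicate by replicate, on BCL2-family standards whose Kd was known from biolayer interferometry. Mating was done three times.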

Substitutions are numbered in sequence along the VL above, starting at 1 (not Kabat). Scale: log10 of Kd in nM, estimated from mating counts; low values are strong binders. Replicates are averaged; those with no signal do not enter the mean. Where no diploid with the target was found in that replicate, the entry reads "nd": below detection, most likely a poor binder, though not proof of it.

changes	replicates, log10 nM	log10 Kd (nM), mean
K50D R53T V97A	3.05 2.71 2.92	2.89
G24Y Y29I G94M	3.59 nd nd	3.59
L27D Y31R N51R	3.77 nd nd	3.77
Y31L N33I P54Q	nd 5.73 3.95	4.84
D25N Q96T	2.19 2.47 1.82	2.16
S26E A32S N51I	3.53 4.18 3.39	3.70
Y31G F98A	2.66 2.57 3.04	2.76
G49F R53N R90F	4.02 nd 3.93	3.98
G49I N52K S89F	nd nd 3.86	3.86
R28P P54Y S92M	4.25 3.85 3.31	3.80
R28K Y31L S93D	2.93 2.90 2.46	2.76
R28E S93Q F98R	2.92 2.83 2.33	2.69
D25C N51G S92F	4.16 4.06 4.64	4.29
D25Q A32F N52I	2.53 3.24 2.22	2.67
Y29M R53D S55K	nd nd nd	nd
D25L G49Y S89K	nd 5.07 3.41	4.24
Y31K S93F	3.93 nd nd	3.93
Y29D G94K Q96N	2.23 1.79 1.95	1.99
Y30C A32S S93C	2.49 2.77 2.83	2.70
Y31F A32P K50W	1.95 1.94 1.57	1.82
E23K F95H	2.99 2.77 2.55	2.77
S26F P54Y D91Q	nd nd nd	nd
G49R N51A S55V	nd nd nd	nd
Y30C P54I	nd nd 2.91	2.91
Y29I G49T F98K	nd nd nd	nd
Y29Q N33P F98H	nd nd nd	nd
D25N N52K F95G	3.22 4.66 nd	3.94
L27S S55R F95R	2.95 2.52 3.25	2.91
E23P R90S S92I	3.21 3.77 4.10	3.69
L27M S55W	3.01 2.66 nd	2.83
N33M R53G S92T	nd nd nd	nd
R28E S89I F95R	1.88 2.31 1.50	1.90
A32R N51I V97H	nd nd 4.78	4.78
E23A D25N F98L	2.63 2.92 1.84	2.46
L27V Y31M N33S	2.19 2.12 2.47	2.26
G49R N52F D91Y	4.37 3.38 nd	3.87
D25L S93E Q96F	3.51 3.17 3.32	3.33
E23Q S89P V97I	1.54 2.07 1.64	1.75
S26V P54C	nd nd nd	nd
S26D A32F S93E	nd nd nd	nd
Y29V N33D S92Y	2.76 3.14 3.25	3.05
Y29E N33M G49V	nd 4.22 nd	4.22
D25H A32D	3.04 5.41 4.25	4.23
L27M Y29Q G49I	3.61 4.31 nd	3.96
R28T N52L S92Y	3.10 3.21 2.62	2.98
E23Y L27W R90D	nd 4.09 nd	4.09
L27K S55V F95I	nd nd nd	nd
Y31H S93Q G94E	3.65 2.66 2.49	2.93
P54K S93V	nd 3.81 4.88	4.34
E23D S88I V97C	nd 4.72 nd	4.72
R28H N51I Q96V	nd 5.12 nd	5.12

As a blank, each scFv also met three strains without target: over library AAYL52, 28% of these pairings were detected, typically at 3.91 and seldom below 2.90. For reference, the parent read 2.31 as the reference entry and 2.25 as a member of this library.